Measurements as given in patent publication US20140363833.

System: fluorophore-labeled thrombin substrate (fPR-x-S extended with glycine spacers and a C-terminal cysteine) on nanoworms

With “human thrombin (Haematologic Technologies)” the “sample fluorescence (fluorogenic NW protease assay)” value was “increased sample fluorescence by more than 25-fold within ten minutes”.
